Test results from patent US20260384450A1, “MACROCYCLIC AMINOPYRIDINE COMPOUNDS AS EGFR INHIBITORS” (published 2026).
Where two headings read alike, the source gives them in different places.

Protein sequences, listed by entry. Tags and fused reporters are not part of them. Lines headed by an entry give the natural chain unless they say otherwise; changes in a name come on top. Chains listed by the source or under a name are the forms on record and can include a tag or linker. Residues count along the entry.
UniProt P00533, 25-1210 limits assumed: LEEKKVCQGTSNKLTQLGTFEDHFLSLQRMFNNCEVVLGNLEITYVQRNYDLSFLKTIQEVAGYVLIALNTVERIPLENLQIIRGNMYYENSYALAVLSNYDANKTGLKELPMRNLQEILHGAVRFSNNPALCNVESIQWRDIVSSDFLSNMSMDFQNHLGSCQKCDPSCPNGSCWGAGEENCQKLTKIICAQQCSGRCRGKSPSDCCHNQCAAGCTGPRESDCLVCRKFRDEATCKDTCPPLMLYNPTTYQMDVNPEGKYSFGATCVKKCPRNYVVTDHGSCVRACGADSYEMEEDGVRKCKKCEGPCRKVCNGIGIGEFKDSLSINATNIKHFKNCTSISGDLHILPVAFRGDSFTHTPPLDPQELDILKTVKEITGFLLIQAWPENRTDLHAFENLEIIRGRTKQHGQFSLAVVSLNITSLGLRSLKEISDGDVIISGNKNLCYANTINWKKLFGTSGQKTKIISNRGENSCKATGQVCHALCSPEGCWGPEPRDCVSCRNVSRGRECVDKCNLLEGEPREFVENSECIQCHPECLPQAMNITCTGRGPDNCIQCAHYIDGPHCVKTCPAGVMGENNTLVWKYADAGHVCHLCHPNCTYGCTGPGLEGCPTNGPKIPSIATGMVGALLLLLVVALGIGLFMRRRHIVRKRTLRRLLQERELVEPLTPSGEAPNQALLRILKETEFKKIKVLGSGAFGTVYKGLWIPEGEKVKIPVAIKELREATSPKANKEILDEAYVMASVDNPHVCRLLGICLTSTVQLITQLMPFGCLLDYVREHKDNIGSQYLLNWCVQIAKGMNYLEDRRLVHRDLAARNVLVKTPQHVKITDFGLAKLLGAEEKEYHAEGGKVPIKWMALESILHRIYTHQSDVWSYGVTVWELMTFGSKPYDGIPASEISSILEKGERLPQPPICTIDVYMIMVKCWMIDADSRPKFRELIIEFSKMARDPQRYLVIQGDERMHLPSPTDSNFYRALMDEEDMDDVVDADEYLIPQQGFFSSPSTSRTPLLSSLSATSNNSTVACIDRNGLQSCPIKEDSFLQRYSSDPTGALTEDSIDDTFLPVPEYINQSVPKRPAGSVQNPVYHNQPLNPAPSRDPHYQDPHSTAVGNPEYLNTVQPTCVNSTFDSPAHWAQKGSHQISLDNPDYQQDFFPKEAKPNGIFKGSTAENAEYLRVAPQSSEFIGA
UniProt P00533, 25-1210 C797S/L858R limits assumed: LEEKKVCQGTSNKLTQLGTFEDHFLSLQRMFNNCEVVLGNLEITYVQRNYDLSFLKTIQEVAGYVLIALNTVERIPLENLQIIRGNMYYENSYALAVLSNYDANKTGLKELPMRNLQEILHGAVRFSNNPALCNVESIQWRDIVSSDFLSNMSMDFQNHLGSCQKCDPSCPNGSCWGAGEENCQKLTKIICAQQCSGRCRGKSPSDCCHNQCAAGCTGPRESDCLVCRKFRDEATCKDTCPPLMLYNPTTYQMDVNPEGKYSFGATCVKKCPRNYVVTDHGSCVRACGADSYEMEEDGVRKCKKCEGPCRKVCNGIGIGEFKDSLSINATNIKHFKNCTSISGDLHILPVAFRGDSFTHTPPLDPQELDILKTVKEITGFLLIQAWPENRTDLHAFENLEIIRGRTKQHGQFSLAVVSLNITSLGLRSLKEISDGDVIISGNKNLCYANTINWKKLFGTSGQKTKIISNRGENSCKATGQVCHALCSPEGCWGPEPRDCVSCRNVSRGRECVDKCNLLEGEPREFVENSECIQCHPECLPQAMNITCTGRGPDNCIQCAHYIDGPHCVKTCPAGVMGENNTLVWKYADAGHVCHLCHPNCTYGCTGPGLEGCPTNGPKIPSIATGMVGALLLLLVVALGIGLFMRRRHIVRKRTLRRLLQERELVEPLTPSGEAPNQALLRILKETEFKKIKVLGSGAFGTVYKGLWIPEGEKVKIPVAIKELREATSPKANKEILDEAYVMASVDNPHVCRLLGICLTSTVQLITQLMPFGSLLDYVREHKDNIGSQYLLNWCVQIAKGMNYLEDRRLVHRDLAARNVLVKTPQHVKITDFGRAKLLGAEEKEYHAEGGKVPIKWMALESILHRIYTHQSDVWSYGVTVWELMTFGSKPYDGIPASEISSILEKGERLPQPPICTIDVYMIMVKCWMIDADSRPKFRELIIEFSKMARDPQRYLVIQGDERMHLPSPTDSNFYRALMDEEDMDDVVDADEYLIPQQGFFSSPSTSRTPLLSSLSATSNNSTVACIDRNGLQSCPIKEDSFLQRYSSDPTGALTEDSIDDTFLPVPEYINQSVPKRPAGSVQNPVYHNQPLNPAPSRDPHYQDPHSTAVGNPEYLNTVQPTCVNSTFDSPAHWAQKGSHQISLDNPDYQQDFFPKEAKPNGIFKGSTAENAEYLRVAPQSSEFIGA
UniProt P00533, 25-1210 T790M/C797S/L858R limits assumed: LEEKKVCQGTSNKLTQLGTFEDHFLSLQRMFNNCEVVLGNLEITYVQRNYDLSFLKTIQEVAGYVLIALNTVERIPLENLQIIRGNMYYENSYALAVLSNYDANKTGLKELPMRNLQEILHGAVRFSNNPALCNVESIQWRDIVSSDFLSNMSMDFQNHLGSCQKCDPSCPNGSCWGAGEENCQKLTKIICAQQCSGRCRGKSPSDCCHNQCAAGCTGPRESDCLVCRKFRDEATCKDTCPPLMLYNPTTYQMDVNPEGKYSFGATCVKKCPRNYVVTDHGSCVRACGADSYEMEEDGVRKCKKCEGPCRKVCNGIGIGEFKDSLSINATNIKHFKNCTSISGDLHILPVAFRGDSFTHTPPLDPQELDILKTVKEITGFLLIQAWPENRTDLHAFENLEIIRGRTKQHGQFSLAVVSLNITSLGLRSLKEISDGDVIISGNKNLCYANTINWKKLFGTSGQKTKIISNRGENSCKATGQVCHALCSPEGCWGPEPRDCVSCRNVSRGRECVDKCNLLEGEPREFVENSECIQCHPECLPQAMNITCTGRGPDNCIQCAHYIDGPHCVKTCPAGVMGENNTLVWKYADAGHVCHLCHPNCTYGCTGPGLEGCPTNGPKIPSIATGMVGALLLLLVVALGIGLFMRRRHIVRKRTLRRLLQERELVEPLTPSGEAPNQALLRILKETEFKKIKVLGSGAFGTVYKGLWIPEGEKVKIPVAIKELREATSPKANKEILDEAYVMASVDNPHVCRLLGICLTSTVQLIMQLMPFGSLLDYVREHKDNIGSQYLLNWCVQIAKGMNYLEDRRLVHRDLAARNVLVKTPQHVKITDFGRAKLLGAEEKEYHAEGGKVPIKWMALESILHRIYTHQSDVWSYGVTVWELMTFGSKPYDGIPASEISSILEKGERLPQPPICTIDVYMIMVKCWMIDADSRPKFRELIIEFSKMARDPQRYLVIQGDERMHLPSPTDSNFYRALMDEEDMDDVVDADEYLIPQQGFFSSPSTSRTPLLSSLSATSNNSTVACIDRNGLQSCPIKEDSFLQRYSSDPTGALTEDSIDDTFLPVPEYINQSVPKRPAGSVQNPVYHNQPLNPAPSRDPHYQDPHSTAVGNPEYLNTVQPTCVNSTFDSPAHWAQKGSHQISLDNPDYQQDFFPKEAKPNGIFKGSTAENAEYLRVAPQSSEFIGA
UniProt P00533, with tags, fused parts or gaps DEL746-750/C797S limits assumed: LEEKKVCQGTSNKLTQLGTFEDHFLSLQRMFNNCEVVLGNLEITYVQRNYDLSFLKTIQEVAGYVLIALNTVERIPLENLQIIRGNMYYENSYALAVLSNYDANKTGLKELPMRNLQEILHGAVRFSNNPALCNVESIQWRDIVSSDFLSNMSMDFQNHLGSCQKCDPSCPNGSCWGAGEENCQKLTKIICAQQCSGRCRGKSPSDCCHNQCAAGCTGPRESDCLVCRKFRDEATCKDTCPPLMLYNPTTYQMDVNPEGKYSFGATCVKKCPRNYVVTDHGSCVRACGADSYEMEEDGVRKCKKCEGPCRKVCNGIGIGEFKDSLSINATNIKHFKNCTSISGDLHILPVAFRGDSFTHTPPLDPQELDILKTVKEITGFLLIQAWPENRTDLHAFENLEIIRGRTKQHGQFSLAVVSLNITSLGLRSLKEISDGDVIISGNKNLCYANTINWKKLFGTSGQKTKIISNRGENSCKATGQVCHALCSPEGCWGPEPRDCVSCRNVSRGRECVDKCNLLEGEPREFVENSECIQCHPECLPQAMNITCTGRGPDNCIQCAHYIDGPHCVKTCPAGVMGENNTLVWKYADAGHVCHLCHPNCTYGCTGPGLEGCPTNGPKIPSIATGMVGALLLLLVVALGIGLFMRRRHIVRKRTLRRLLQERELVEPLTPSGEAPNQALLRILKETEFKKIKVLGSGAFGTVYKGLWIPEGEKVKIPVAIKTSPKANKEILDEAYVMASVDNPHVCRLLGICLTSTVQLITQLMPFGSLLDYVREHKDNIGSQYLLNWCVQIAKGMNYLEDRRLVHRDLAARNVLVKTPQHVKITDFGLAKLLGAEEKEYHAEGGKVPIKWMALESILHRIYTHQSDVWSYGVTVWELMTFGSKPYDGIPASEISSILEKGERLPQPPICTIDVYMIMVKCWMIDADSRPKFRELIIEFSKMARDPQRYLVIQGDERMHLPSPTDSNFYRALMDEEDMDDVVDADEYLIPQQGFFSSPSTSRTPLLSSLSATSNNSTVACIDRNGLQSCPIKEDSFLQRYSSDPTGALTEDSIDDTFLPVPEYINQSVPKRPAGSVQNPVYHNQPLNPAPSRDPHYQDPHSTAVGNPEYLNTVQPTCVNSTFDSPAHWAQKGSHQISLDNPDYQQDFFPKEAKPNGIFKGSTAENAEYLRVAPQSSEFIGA
UniProt P00533, with tags, fused parts or gaps DEL746-750/T790M/C797S limits assumed: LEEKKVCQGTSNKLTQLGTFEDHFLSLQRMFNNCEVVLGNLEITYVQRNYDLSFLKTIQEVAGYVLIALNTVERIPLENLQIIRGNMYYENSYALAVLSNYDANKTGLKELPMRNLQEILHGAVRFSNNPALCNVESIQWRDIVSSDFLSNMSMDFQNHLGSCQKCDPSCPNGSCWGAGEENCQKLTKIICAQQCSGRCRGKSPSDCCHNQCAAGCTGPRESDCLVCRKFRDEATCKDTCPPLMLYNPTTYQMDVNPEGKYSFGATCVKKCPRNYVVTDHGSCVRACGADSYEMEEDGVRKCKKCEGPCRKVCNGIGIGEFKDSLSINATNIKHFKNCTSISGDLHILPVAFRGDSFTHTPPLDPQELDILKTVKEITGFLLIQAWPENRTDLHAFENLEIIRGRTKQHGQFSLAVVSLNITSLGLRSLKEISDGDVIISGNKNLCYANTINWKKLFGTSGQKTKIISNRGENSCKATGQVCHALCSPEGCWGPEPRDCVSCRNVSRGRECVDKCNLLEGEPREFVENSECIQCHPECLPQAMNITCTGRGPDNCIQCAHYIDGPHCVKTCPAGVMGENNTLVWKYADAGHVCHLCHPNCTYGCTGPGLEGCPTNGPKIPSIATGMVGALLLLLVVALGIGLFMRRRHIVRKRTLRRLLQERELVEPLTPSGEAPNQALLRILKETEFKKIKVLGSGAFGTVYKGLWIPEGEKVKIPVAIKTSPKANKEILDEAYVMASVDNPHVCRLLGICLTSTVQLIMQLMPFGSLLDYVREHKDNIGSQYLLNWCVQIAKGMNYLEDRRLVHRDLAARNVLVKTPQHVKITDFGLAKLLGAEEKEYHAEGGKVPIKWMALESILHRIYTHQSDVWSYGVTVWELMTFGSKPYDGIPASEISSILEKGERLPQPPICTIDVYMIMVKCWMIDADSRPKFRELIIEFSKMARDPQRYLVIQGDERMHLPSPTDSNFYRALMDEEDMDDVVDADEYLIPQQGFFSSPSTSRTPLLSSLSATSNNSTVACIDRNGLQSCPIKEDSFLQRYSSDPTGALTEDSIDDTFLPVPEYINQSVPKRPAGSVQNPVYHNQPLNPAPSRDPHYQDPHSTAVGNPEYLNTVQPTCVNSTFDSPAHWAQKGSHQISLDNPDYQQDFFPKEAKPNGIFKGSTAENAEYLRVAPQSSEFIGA

Assays:
EGFR LRCS (L858R/C797S) = EGFR LRCS (L858R/C797S) (Homo sapiens, UniProt P00533, C797S/L858R); assay: Biochemical EGFR kinase assay (Lance Ultra TR-FRET), double mutant L858R/C797S
[1] = molecular target: EGFR LRTMCS (L858R/T790M/C797S) (Homo sapiens, UniProt P00533, C797S/L858R/T790M); assay: Biochemical EGFR kinase assay (Lance Ultra TR-FRET), triple mutant L858R/T790M/C797S
EGFR WT = EGFR WT (Homo sapiens, UniProt P00533); assay: Biochemical EGFR kinase assay (Lance Ultra TR-FRET), wildtype
[2] = molecular target: EGFR D19TMCS (del19/T790M/C797S) (Homo sapiens, UniProt P00533, C797S/DEL746-750/T790M); assay: Biochemical EGFR kinase assay (Lance Ultra TR-FRET), triple mutant del19/T790M/C797S
EGFR D19CS (del19/C797S) = EGFR D19CS (del19/C797S) (Homo sapiens, UniProt P00533, C797S/DEL746-750); assay: Biochemical EGFR kinase assay (Lance Ultra TR-FRET), double mutant del19/C797S
[3] = read-out: EGFR LRCS IC50, ATP 1 mM
[4] = read-out: EGFR LRCS IC50, ATP Km
[5] = read-out: EGFR LRTMCS IC50, ATP 1 mM
[6] = read-out: EGFR LRTMCS IC50, ATP Km
[7] = read-out: EGFR WT IC50, ATP 1 mM
[8] = read-out: EGFR D19TMCS IC50, ATP 1 mM
[9] = read-out: EGFR D19TMCS IC50, ATP Km
[10] = read-out: EGFR D19CS IC50, ATP 1 mM
[11] = read-out: EGFR D19CS IC50, ATP Km
[12] = read-out: IC50, EGFR-LRCS, 1 mM, ATP 1 mM, EGFR L858R/C797S
[13] = read-out: IC50, EGFR-LRCS, Km, ATP at Km, EGFR L858R/C797S
[14] = read-out: IC50, EGFR LRTMCS, 1 mM, ATP 1 mM, EGFR L858R/T790M/C797S
[15] = read-out: IC50, EGFR LRTMCS, Km, ATP at Km, EGFR L858R/T790M/C797S
[16] = read-out: IC50, EGFR WT, 1 mM, ATP 1 mM, EGFR wildtype
[17] = read-out: IC50, EGFR WT, Km, ATP at Km, EGFR wildtype
[18] = read-out: IC50, EGFR D19TMCS, Km, ATP at Km, EGFR del19/T790M/C797S
[19] = read-out: IC50, EGFR-D19CS, 1 mM, ATP 1 mM, EGFR del19/C797S
[20] = read-out: IC50, EGFR-D19CS, Km, ATP at Km, EGFR del19/C797S

SMILES | IC50 (EGFR LRCS (L858R/C797S); [3]) [nM] | IC50 (EGFR LRCS (L858R/C797S); [4]) [nM] | IC50 [1, 5] [nM] | IC50 [1, 6] [nM] | IC50 (EGFR WT; [7]) [nM] | IC50 (EGFR WT; read-out: EGFR WT IC50, ATP Km) [nM] | IC50 [2, 8] [nM] | IC50 [2, 9] [nM] | IC50 (EGFR D19CS (del19/C797S); [10]) [nM] | IC50 (EGFR D19CS (del19/C797S); [11]) [nM] | IC50 (EGFR LRCS (L858R/C797S); [12]) [nM] | IC50 (EGFR LRCS (L858R/C797S); [13]) [nM] | IC50 [1, 14] [nM] | IC50 [1, 15] [nM] | IC50 (EGFR WT; [16]) [nM] | IC50 (EGFR WT; [17]) [nM] | IC50 [2, 18] [nM] | IC50 (EGFR D19CS (del19/C797S); [19]) [nM] | IC50 (EGFR D19CS (del19/C797S); [20]) [nM]
C[C@@H]1CCNc2cc(ncc2-c2ccn(C(F)F)n2)Nc2ccnc(n2)-c2cnn(C)c2OC1 | > 1000 | 100 to 1000 | 10 to 100 | < 10 | > 1000 | > 1000 | 10 to 100 | < 10 | > 1000 | > 1000 | – | – | – | – | – | – | – | – | –
Cn1ncc2c1OCCC(C)(C)Nc1cc(ncc1-c1ccn(C(F)F)n1)Nc1ccnc-2n1 | > 1000 | 100 to 1000 | 10 to 100 | < 10 | > 1000 | 100 to 1000 | 10 to 100 | < 10 | > 1000 | 100 to 1000 | – | – | – | – | – | – | – | – | –
CO[C@H]1C[C@H](Nc2ccnc(-c3cnc4cc3N[C@@H](C)CCOc3c(cnn3C)-c3nccc(n3)N4)c2)C1 | 100 to 1000 | 10 to 100 | < 10 | < 10 | > 1000 | 10 to 100 | < 10 | < 10 | 10 to 100 | 10 to 100 | – | – | – | – | – | – | – | – | –
Cc1nn(C)c2c1-c1nccc(n1)Nc1cc(c(-c3ccc(OC4CCN(C)CC4)cn3)cn1)NCC(C)(C)CO2 | < 10 | < 10 | < 10 | < 10 | 100 to 1000 | < 10 | < 10 | < 10 | < 10 | < 10 | – | – | – | – | – | – | – | – | –
Cc1nn(C)c2c1-c1nccc(n1)Nc1cc(c(-c3cnc(CN4CCOCC4)cn3)cn1)N[C@@H](C)CCO2 | – | – | – | – | – | – | – | – | – | – | 10 to 100 | < 10 | < 10 | < 10 | > 1000 | < 10 | < 10 | < 10 | < 10
Cc1nn(C)c2c1-c1nccc(n1)Nc1cc(c(-c3ncc(CN4CCC[C@H](O)C4)cc3F)cn1)N[C@@H](C)CCO2 | – | – | – | – | – | – | – | – | – | – | 100 to 1000 | < 10 | < 10 | < 10 | > 1000 | 10 to 100 | < 10 | 10 to 100 | < 10

Other lines, results leading:

IC50 (EGFR LRCS (L858R/C797S); [3]) [nM] | IC50 (EGFR LRCS (L858R/C797S); [4]) [nM] | IC50 [1, 5] [nM] | IC50 [1, 6] [nM] | IC50 (EGFR WT; [7]) [nM] | IC50 (EGFR WT; read-out: EGFR WT IC50, ATP Km) [nM] | IC50 [2, 8] [nM] | IC50 [2, 9] [nM] | IC50 (EGFR D19CS (del19/C797S); [10]) [nM] | IC50 (EGFR D19CS (del19/C797S); [11]) [nM] | IC50 (EGFR LRCS (L858R/C797S); [12]) [nM] | IC50 (EGFR LRCS (L858R/C797S); [13]) [nM] | IC50 [1, 14] [nM] | IC50 [1, 15] [nM] | IC50 (EGFR WT; [16]) [nM] | IC50 (EGFR WT; [17]) [nM] | IC50 [2, 18] [nM] | IC50 (EGFR D19CS (del19/C797S); [19]) [nM] | IC50 (EGFR D19CS (del19/C797S); [20]) [nM] | SMILES
100 to 1000 | < 10 | < 10 | < 10 | > 1000 | 10 to 100 | < 10 | < 10 | 10 to 100 | < 10 | – | – | – | – | – | – | – | – | – | C[C@@H]1CCOc2c(cnn2C)-c2nccc(n2)Nc2cc(c(-c3ccn(C(F)F)n3)cn2)N1
100 to 1000 | < 10 | < 10 | < 10 | > 1000 | 10 to 100 | < 10 | < 10 | 10 to 100 | 10 to 100 | – | – | – | – | – | – | – | – | – | CC[C@H]1CCOc2c(cnn2C)-c2nccc(n2)Nc2cc(c(-c3ccn(C(F)F)n3)cn2)N1
> 1000 | > 1000 | 10 to 100 | < 10 | > 1000 | > 1000 | 10 to 100 | < 10 | > 1000 | > 1000 | – | – | – | – | – | – | – | – | – | COc1cc(OC2CCN(CC(F)(F)F)CC2)cnc1-c1cnc2cc1N[C@@H](C)CCOc1c(cnn1C)-c1nccc(n1)N2
100 to 1000 | < 10 | < 10 | < 10 | > 1000 | 10 to 100 | < 10 | < 10 | 10 to 100 | < 10 | – | – | – | – | – | – | – | – | – | C[C@H]1CCOc2c(cnn2C)-c2nccc(n2)Nc2cc(c(-c3ccc(C(C)(O)C(F)(F)F)cn3)cn2)N1 (some centres unmarked)
100 to 1000 | 10 to 100 | 10 to 100 | < 10 | > 1000 | < 10 | < 10 | < 10 | 10 to 100 | 10 to 100 | – | – | – | – | – | – | – | – | – | Cn1ncc2c1OCC1(CCCC1)CNc1cc(ncc1-c1ccn(C(F)F)n1)Nc1ccnc-2n1
100 to 1000 | 10 to 100 | 10 to 100 | < 10 | > 1000 | 10 to 100 | < 10 | < 10 | 100 to 1000 | 10 to 100 | – | – | – | – | – | – | – | – | – | Cn1ncc2c1OCC1(CCC1)CNc1cc(ncc1-c1ccn(C(F)F)n1)Nc1ccnc-2n1
100 to 1000 | < 10 | < 10 | < 10 | > 1000 | < 10 | < 10 | < 10 | < 10 | < 10 | – | – | – | – | – | – | – | – | – | C[C@H]1CCNc2cc(ncc2-c2ccn(C(F)F)n2)Nc2ccnc(n2)-c2cnn(C)c2O1
